{"source": "patent US20170349949A1", "about": "“METHODS OF SELECTING SUBJECTS FOR TREATMENT WITH METABOLIC MODULATORS” (Partikula LLC, priority 2016, published 2017)", "system": "HCT116 tumors", "assay": "KULA2 in mice harboring HCT116 tumors (MPC null)", "type": "in vivo", "conditions": "comparator results named beside KULA2 in HCT116; dose and source not given", "procedure": "HCT116 represents the MPC null group, having minimal to no expression of MPC1 or MPC2. CT26 is the MPC+ group. MPC levels were verified via western blotting or otherwise known (see, e.g., Schell, et al., Molecular Cell, 56:400-413 (2014)).\nIn both models HCT116 and CT26 the mice (between 8-10 per arm) were dosed with KULA2 via i.p. injection and vehicle, HCT116 tumors at a dose of 20 mg/kg, and CT26 tumors at a dose of 18 mg/kg. Dosing schedule in both cases was 5 days on, 2 days off for the duration of the study.\nExperiments were designed to determine if MPC expression correlates with the efficacy of PDK inhibitor. A PDK inhibitor, KULA2, was administered to mice harboring HCT116 tumors (at a dose of 20 mg/kg) or CT26 tumors (at a dose of 18 mg/kg). […] However in the CT26 MPC positive model, KULA2 inhibits tumors by about 55%. […] The results also indicate that MPC expression can used as a biomarker to select subjects for treatment with KULA2, other PDK inhibitors, and other modulators to the TCA and oxidative phosphorylation downstream of pyruvate import into the mitochondria."}
{"substance": "Erbitux: comparator named for tumor inhibition", "values": [{"measurement": "tumor inhibition (comparators)", "result": 7, "unit": "%"}]}
